The target in assay [1] is fibronectin (UniProt P02751). As to the kind of experiment: SPR; Biacore 3000; fibronectin on a CM5 chip; 0-500 nM untagged OspC variants injected at 10 μl/min, 25°C; 1:1 Langmuir model; KD from the average koff divided by kon of each run.
For assay [2], the target named is fibronectin (UniProt P02751). Put plainly: ELISA; wells coated with 10 μg/ml purified fibronectin in 0.05 M Na2CO3 pH 9.0; 0.03125-2 μM GST or GST-tagged OspC variants, 1 hr at ambient temperature; goat anti-GST and HRP-conjugated anti-goat IgG; estimated KD from a fit of OD405.

Amino acid sequences for entries named in this document (tags omitted). Residues count along the entry.
UniProt P02751, 32-2477: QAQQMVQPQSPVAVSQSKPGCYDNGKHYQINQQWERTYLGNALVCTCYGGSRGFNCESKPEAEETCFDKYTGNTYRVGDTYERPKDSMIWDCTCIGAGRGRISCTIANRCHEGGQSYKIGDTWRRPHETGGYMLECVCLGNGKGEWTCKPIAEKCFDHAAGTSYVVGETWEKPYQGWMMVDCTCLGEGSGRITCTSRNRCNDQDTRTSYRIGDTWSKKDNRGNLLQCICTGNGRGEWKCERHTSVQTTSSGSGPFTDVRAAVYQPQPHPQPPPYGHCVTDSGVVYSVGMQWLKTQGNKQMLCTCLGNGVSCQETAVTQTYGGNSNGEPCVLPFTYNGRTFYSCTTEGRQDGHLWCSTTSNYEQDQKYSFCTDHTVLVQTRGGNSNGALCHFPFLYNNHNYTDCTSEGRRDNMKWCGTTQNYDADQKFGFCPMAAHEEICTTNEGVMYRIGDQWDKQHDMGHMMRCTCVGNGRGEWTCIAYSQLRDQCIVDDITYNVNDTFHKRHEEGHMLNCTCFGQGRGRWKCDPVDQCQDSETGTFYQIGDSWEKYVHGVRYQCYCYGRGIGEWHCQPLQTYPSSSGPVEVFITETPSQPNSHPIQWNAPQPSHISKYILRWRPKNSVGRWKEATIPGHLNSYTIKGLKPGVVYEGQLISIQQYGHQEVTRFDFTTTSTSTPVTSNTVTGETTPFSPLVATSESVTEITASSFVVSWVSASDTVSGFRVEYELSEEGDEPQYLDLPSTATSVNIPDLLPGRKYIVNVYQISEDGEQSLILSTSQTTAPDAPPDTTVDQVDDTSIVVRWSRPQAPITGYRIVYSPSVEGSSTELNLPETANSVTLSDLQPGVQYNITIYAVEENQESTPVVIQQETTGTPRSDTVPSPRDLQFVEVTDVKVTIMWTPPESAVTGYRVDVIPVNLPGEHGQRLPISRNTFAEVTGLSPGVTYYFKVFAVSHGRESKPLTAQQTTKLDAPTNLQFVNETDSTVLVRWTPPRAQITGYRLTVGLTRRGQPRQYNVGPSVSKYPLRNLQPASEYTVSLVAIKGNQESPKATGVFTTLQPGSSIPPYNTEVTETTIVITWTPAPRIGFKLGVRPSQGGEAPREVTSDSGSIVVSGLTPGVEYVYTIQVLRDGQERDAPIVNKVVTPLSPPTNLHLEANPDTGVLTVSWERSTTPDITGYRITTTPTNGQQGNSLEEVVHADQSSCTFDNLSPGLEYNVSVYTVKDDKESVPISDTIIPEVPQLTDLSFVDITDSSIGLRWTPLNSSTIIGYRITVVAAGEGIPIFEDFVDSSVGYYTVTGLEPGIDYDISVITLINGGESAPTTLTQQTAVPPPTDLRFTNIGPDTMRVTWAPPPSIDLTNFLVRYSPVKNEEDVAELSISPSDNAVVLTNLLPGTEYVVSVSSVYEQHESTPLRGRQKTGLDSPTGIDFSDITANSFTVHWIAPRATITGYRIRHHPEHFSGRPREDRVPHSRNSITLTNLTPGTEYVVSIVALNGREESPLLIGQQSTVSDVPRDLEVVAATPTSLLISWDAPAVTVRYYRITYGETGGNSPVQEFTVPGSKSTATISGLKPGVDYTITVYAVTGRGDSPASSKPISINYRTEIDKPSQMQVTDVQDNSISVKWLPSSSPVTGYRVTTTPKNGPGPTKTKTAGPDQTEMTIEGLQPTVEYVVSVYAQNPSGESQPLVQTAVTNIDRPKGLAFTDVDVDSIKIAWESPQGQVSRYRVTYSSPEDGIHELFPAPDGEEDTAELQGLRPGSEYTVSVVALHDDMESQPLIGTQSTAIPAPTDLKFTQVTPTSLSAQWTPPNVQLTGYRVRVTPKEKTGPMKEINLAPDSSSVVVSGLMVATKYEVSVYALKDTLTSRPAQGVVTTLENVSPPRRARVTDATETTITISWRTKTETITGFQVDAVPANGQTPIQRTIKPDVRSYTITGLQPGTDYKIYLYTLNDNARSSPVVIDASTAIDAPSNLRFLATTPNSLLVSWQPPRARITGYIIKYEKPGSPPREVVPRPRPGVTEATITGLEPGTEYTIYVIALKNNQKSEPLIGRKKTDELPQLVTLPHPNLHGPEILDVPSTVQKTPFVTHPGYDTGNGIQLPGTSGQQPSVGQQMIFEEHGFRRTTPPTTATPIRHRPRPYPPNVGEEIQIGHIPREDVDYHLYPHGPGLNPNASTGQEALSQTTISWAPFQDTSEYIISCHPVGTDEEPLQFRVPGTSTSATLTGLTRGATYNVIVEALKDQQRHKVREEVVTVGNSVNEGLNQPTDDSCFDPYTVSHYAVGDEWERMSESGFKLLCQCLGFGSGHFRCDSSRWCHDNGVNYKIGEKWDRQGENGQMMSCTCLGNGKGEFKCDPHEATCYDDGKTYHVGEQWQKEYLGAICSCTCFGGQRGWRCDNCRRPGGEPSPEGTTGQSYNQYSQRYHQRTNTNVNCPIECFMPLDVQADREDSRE

The values that follow come from PMC7255614.

The Kd is the free concentration of one partner at which half of the binding sites on the other are occupied at equilibrium, for simple one-to-one binding. In general, koff refers to the rate constant with which the complex falls apart. The term kon denotes the rate constant with which the complex forms. High values mean faster complex formation, low ones slower complex formation.

Take “OspCPBr, untagged (natural protein; other documents disagree on this pair)”: in the assay with fibronectin [1], the Kd stood at 710 nM, the koff was 0.13 s⁻¹ and the kon was 192000 M⁻¹ s⁻¹.
“GST-OspCPBr (natural protein; other documents disagree on this pair)”: in the assay with fibronectin [2], the Kd was 900 nM.
In the assay with fibronectin [1], “OspC_(N40-D10/E9), untagged (natural protein; other documents disagree on this pair)” came in with a Kd of 300 nM, a koff of 0.13 s⁻¹ and a kon of 451000 M⁻¹ s⁻¹.
